The format of the data set is physicochemical. Particulars: in the presence of VSP; no degradation after incubation at pH 2. On the procedure:
IL-2 alone or mixed with VSP carrier was incubated at different pHs or with different concentration of proteolytic enzymes such as trypsin. The presence of IL-2 after the pH and proteolyitc enzyme challenges was detected using Coomassie stain of SDS-PAGE gels.
For example, none of the two interleukins tested digested by trypsin, even at 1:10 ratios, or degrade after incubation at pH 2. This is consistent with the observation that VSP carriers can protect other bioactive peptides, such as LANTUS™ insulin. Accordingly, the combination of VSPs with interleukins, e.g., IL-2 or IL-10, could facilitate their intestinal absorption and their systemic effects.

With IL-2: human interleukin-2, a cytokine, the “resistance to low pH” value is “resistant”.

(Values after patent US9757471B2, “Protozoan variant-specific surface proteins (VSP) as carriers for oral drug delivery” (priority 2012, dated 2017).)
